## Measured properties of organic chemicals

Values as listed in the OPERA 2.9 repository of K. Mansouri.

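The numbers are reported measurements, compiled and curated for the OPERA QSAR suite. The files give a single number for a compound and property, which may rest on several reports. Method, purity and exact conditions of the single measurements are not given. Where a salt, mixture or single isomer is drawn, the source does not say that exactly this form was tested. Some entries may be limits or estimates that an upstream database listed as plain numbers.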

Melting points are in °C.
The boiling point refers to atmospheric pressure (760 mmHg), by the definition of the set.
The octanol-water partition coefficient is given as log10; larger values mean a more lipophilic compound.
Water solubility is log10 of mol/L, nominally at 25 °C; higher is more soluble.
Vapor pressures (log10 mmHg) refer to near room temperature, 15 to 30 °C; higher is more volatile.
The Henry's law constant is on a log10 scale in atm·m3/mol (set defined at 25 °C); higher favours air over water.
fu is the fraction unbound in human plasma, from 0 to 1.
Clint is human hepatic intrinsic clearance in µL/min per million cells; 0 means that no clearance was seen.
"n/a" marks a cell with nothing listed here.

| compound | melting point (°C) | BP (°C) | logP | log S (log10 mol/L) | log vapor pressure (log10 mmHg) | log H (log10 atm·m3/mol) | fu | hepatic Clint (µL/min/10^6 cells) |
|---|---|---|---|---|---|---|---|---|
| CCOc1cc(C(C)(C)C)ccc1C1COC(c2c(F)cccc2F)=N1 (configuration not stated) | n/a | n/a | 5.59 | n/a | n/a | n/a | n/a | 18.48 |
| CCON=C(CC)C1=C(O)CC(c2c(C)cc(C)cc2C)CC1=O (configuration not stated) | n/a | n/a | n/a | -4.73 | n/a | -9.705 | 0.169 | 0 |
| O=c1[nH]c2ccccc2n1C1CCN(CCCC(c2ccc(F)cc2)c2ccc(F)cc2)CC1 | n/a | n/a | n/a | -4.66 | n/a | n/a | 0.05 | n/a |
| CCOP(=S)(OCC)Oc1cc(Cl)c(Br)cc1Cl | n/a | n/a | n/a | n/a | -4.337 | -4.786 | n/a | n/a |
| FC(F)=C(F)OC(F)(F)C(F)(F)F | n/a | n/a | 3.29 | -4.954 | n/a | n/a | n/a | n/a |
| O=c1[nH]c2ccccc2c(=O)o1 | n/a | n/a | 1.26 | -2.735 | -8.138 | n/a | n/a | n/a |
| CNc1cnn(-c2cccc(C(F)(F)F)c2)c(=O)c1Cl | n/a | n/a | n/a | n/a | n/a | n/a | 0.1833 | 11.09 |
| CC(C)(C)CC(C)(C)OO | n/a | n/a | 2.9 | -1.718 | -0.949 | n/a | n/a | n/a |
| CCS(=O)c1c(C#N)nn(-c2c(Cl)cc(C(F)(F)F)cc2Cl)c1N (configuration not stated) | n/a | n/a | 2.9 | -4.635 | -9.166 | n/a | n/a | n/a |
| FC(F)(F)Br | n/a | n/a | n/a | n/a | n/a | n/a | 0.838 | 1 |
| Cl.NNC(N)=O | n/a | n/a | -2.75 | n/a | -5.648 | n/a | n/a | n/a |
| CN(C)C1CSSSC1 | n/a | n/a | n/a | n/a | -5.388 | -10.75 | n/a | n/a |
| CCOP(=S)(OCC)SCSC(C)(C)C | n/a | n/a | n/a | n/a | n/a | -4.574 | n/a | 32.5 |
| O=C(Nc1ccccc1-c1ccc(Cl)cc1)c1cccnc1Cl | n/a | n/a | n/a | n/a | n/a | n/a | 0.03167 | 17.28 |
| FC(F)=C(F)OC(F)(F)OC(F)(F)F | n/a | 19.5 | n/a | -4.797 | n/a | n/a | n/a | n/a |
| CC(=O)O.CC(=O)O.CC(=O)O.N=C(N)NCCCCCCCCNCCCCCCCCNC(=N)N | 144 | n/a | n/a | 0.155 | -5.523 | n/a | n/a | n/a |
| CCCC(=NOCC)C1=C(O)CC(CC(C)SCC)CC1=O (configuration not stated) | n/a | n/a | n/a | -2.974 | n/a | -10.86 | n/a | 11.87 |
| Nc1c(Cl)c(F)nc(OCC(=O)O)c1Cl | n/a | n/a | 2.2 | n/a | n/a | n/a | 0.09166 | n/a |
| CC1CCC2CC1(OO)C2(C)C (configuration not stated) | n/a | n/a | 2.85 | -3.027 | n/a | n/a | n/a | n/a |
| CCN(CC)CC#N | -6 | n/a | 0.48 | n/a | 0.264 | n/a | n/a | n/a |
| N=c1nc(Nc2nc(=N)[nH]c(=N)[nH]2)[nH]c(=N)[nH]1 | n/a | n/a | -1 | -4.332 | n/a | n/a | n/a | n/a |
| C[C@@H]1[C@@H](c2ccc(Cl)cc2)SC(=O)N1C(=O)NC1CCCCC1 | n/a | 222 | n/a | n/a | n/a | n/a | n/a | 110.4 |
| CC(C)N(CCC(C(N)=O)(c1ccccc1)c1ccccn1)C(C)C (configuration not stated) | n/a | n/a | n/a | -1.701 | n/a | n/a | 0.3101 | 0.46 |

Excerpt, the final 4 entries:

| compound | melting point (°C) | BP (°C) | logP | log S (log10 mol/L) | log vapor pressure (log10 mmHg) | log H (log10 atm·m3/mol) | fu | hepatic Clint (µL/min/10^6 cells) |
|---|---|---|---|---|---|---|---|---|
| CCN(CC)CC#N | -6 | n/a | 0.48 | n/a | 0.264 | n/a | n/a | n/a |
| N=c1nc(Nc2nc(=N)[nH]c(=N)[nH]2)[nH]c(=N)[nH]1 | n/a | n/a | -1 | -4.332 | n/a | n/a | n/a | n/a |
| C[C@@H]1[C@@H](c2ccc(Cl)cc2)SC(=O)N1C(=O)NC1CCCCC1 | n/a | 222 | n/a | n/a | n/a | n/a | n/a | 110.4 |
| CC(C)N(CCC(C(N)=O)(c1ccccc1)c1ccccn1)C(C)C (configuration not stated) | n/a | n/a | n/a | -1.701 | n/a | n/a | 0.3101 | 0.46 |